Consider one compound from article PMC8841438 (Clinical and Translational Science, 2021).

A short description of the data set: Study 3: metformin pharmacokinetics alone or with filgotinib in healthy subjects. The conditions noted are these: filgotinib 200 mg once daily, metformin 850 mg.

“Also recorded” adds a separate entry of the source.

For `CN(C)C(=N)N=C(N)N` [Metformin, metformin], the “effect of filgotinib on metformin exposure (AUCinf, C max) (in words)” value is reported as “did not alter; also recorded: no effect; also recorded: remained unchanged”.
